The target in test [1] is human glucagon receptor (human) (UniProt P47871). Put plainly: cell-based or functional assay.
Test [2] concerns the target human glucagon-like peptide 1 receptor (human) (UniProt P43220). The experiment in a line: cell-based or functional assay.

Bounds are passed on as bounds.

In test [1], “Exendin-4 (from UniProt P26349) (peptide)” came in with a GLUR EC50 (nM), cAMP formation in HEK293 cells expressing human Glucagon-R of more than 1000 nM. The substance further had a GLP-1R EC50 (nM), cAMP formation in HEK293 cells expressing human GLP-1-R in test [2] of 0.02 nM.

(Values after US20150080295A1 (ZEALAND PHARMA A S, published 2015).)
